Measured values taken from patent US20090105212A1, “NOVEL ADENINE COMPOUND” (priority 2005, published 2009).

Chains of the proteins cited; added tags and fusions are not shown. Residues count along the entry.
UniProt Q9NYK1, 27-1049 limits assumed: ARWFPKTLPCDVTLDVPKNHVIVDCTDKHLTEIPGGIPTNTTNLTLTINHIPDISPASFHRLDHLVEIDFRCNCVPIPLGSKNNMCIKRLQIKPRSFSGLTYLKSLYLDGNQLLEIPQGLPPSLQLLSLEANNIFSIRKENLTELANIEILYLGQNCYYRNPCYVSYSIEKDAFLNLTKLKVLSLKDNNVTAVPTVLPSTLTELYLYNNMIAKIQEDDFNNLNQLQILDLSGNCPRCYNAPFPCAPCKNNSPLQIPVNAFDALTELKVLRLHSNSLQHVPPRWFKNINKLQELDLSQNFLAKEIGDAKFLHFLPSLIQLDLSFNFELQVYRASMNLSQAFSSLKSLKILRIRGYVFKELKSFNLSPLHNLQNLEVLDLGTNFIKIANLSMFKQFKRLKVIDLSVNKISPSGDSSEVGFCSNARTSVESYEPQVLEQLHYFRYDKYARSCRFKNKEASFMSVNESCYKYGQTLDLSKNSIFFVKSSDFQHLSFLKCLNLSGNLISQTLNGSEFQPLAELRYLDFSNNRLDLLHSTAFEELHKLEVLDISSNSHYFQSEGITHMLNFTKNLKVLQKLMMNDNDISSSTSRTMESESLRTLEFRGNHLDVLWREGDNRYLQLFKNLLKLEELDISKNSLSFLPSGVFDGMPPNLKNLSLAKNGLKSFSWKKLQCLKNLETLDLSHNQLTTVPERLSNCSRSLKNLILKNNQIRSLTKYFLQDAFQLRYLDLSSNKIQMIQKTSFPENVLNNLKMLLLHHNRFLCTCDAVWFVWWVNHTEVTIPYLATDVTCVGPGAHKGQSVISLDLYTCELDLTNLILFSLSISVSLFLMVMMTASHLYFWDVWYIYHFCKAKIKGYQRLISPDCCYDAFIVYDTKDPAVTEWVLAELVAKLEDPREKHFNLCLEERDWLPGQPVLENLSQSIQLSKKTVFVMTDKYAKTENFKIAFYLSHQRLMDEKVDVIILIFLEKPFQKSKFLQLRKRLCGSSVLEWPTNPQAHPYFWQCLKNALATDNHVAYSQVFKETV

Biological target: Human TLR7 (Homo sapiens, UniProt Q9NYK1)
Experiment: Human TLR7 reporter assay (NF-kB-SEAP, HEK293 cells)
Details: read-out: human TLR7 binding activity (EC50); hTLR7/seap-293 cells (HEK293, NF-kB-SEAP reporter), 20 hours incubation, 1 nM-10 μM, absorbance 405 nm
Method: Human TLR7 Reporter Assay
Human TLR7 or rat TLR7 plasmid and reporter plasmid (NF-kB-SEAP) stably-induced HEK293 cells were suspended in DMEM media (10% […], 1% NEAA, 10 ug/mL blastocidin S HCl, 100 ug/mL Zeocin), and the suspension was seeded in 90 μl/well on 96 well plate (hTLR7/seap-293:20000 cells/well, rTLR7/seap-293:25000 cells/well).
To the cells seeded on 96 well plate was added in 10 μl/well a test compound wherein DMSO stock solution (2 μl) was hundredfold diluted with medium (200 μl) (final concentration; 1 nM-10 μM, common ratio 3). The mixture was stirred tapping in the side of the plate, and then incubated for 20 hours in CO2 incubator. To the cells stimulated by a test compound was added a substrate for reporter assay (substrate for SEAP, pNPP) by 50 μl/well. 10 minutes after the addition of substrate, a quenching solution (4N NaOH) was added by 50 μl/well, and the enzymatic reaction was quenched. Top seal A was attached on the plate, and absorbance was measured by microplate reader (405 nm).

Work on `CCCCOc1nc(N)c2[nH]c(=O)n(Cc3ccc(OCCCCN4CCC(C(=O)O)CC4)cc3)c2n1` yielded an EC50 of 0.03 µM.
